Chains of the proteins cited; added tags and fusions are not shown. Lines headed by an entry give the natural chain unless they say otherwise; changes in a name come on top.
UniProt Q9Y5N1: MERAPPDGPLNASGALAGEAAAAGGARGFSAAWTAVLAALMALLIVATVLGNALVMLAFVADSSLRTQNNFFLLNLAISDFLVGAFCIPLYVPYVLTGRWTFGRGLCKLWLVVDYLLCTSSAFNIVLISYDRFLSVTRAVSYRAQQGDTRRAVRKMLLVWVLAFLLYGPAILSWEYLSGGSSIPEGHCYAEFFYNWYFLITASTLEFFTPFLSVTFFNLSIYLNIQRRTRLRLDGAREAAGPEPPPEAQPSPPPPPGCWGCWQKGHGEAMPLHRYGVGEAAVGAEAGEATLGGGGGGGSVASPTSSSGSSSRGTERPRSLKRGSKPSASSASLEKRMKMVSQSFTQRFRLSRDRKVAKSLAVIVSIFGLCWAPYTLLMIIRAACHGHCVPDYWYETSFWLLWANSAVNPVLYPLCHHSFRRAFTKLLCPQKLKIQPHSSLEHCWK

In ChEMBL document CHEMBL4118139, “Novel naphthyloxy derivatives - Potent histamine H3 receptor ligands. Synthesis and pharmacological evaluation” (Bioorg Med Chem, 2018):

Target: Histamine H3 receptor (Homo sapiens, UniProt Q9Y5N1)
Test: biochemical

Ki [nM]	SMILES
21	C[C@H](NCc1ccc(OCc2ccc(OCCCN3CCCCC3)cc2)cc1)C(N)=O
5.4	C[C@@H](NCc1ccc(OCc2ccc(OCCCN3CCCCC3)cc2)cc1)C(N)=O
